Measured values: patent US8829193B2, “PIM kinase inhibitors and methods of their use” (Novartis AG, priority 2008, dated 2014)
pIC50: −log10 of the molar value.

Protein sequences, listed by entry. Tags and fused reporters are not part of them.
UniProt P11309, whole entry: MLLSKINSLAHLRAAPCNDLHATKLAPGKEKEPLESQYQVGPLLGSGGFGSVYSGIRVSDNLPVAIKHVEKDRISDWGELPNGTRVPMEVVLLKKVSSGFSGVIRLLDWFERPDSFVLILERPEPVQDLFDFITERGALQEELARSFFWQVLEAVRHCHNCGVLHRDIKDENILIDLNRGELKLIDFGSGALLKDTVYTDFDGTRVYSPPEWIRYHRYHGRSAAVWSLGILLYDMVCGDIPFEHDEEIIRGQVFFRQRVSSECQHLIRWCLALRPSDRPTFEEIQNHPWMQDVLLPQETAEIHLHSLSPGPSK

Target: Pim1 kinase (Homo sapiens (Human), UniProt P11309)
Experiment: Pim1 ATP depletion assay
Assay type: biochemical
Details: 20 μM ATP, 40 μM BAD peptide, 2.5 nM PIM1
Description: The activity of PIM1 is measured using a luciferase-luciferin based ATP detection reagent to quantify ATP depletion resulting from kinase-catalyzed phosphoryl transfer to a peptide substrate. Compounds to be tested are dissolved in 100% DMSO and directly distributed into white 384-well plates at 0.5 μl per well. […] After 15 minutes, 10 μl of 40 μM ATP in assay buffer is added. Final assay concentrations are 2.5 nM PIM1, 20 μM ATP, 40 μM BAD peptide and 2.5% DMSO. The reaction is performed until approximately 50% of the ATP is depleted, then stopped with the addition of 20 μl KinaseGlo Plus (Promega Corporation) solution. The stopped reaction is incubated for 10 minutes and the remaining ATP detected via luminescence on the Victor2 (Perkin Elmer).

- pIC50: 8.40
SMILES: C[C@H]1C[C@@H](c2ccncc2NC(=O)c2csc(-c3c(F)cccc3F)n2)C[C@@H](N)[C@H]1F (racemic) [Example 58, N-(4-((+/−)-3-amino-4-fluoro-5-methylcyclohexyl)pyridin-3-yl)-2-(2,6-difluorophenyl)thiazole-4-carboxamide]
